Values of other authors, collected in patent publication US10259779B2 (WAYNE STATE UNIVERSITY, priority 2016, dated 2019).

Biological target: T1, HDAC8 (Homo sapiens, UniProt Q9BY41)
T1 sequence (Q9BY41 1-377): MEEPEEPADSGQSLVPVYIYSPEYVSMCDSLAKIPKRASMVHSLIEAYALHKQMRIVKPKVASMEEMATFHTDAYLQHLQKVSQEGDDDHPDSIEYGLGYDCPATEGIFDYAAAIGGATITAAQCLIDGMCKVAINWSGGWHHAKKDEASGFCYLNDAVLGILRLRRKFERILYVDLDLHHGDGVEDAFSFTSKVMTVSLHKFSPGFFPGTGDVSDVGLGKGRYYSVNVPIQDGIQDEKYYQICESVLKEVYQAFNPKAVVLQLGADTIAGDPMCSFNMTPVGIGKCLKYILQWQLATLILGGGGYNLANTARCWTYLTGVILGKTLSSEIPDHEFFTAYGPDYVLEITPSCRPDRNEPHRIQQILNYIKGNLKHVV
Conditions: literature; BRD-73954: over HDAC1, 2, and 3; cited from earlier work

COc1ccc(Cn2ccc3ccc(C(=O)NO)cc32)cc1 [PCI-34051]
fold selectivity to HDAC8 (reported): at least 400 fold
